# Measured affinities in a library of Ab-95 light chain variants

All variants were tested on one target, the spike HR2 peptide PDVDLGDISGINAS (SARS-CoV-2).

Parent scFv Ab-95: VH joined to VL by a 15-residue (Gly4Ser)3 linker. Changes lie in the light chain CDRs alone.
VH: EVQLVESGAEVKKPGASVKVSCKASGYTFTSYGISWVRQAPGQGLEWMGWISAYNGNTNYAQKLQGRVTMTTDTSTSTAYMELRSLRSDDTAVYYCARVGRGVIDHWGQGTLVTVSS
VL: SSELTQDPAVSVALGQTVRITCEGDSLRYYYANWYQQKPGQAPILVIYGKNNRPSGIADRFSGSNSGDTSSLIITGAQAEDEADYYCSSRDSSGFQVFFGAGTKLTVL

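The starting antibody came from a phage panning campaign against this peptide. In library AAYL52, one, two or three CDR residues were substituted; doubles and triples were drawn at random. The assay is AlphaSeq: two haploid yeast populations carry antibody and antigen on their surface. Binding brings cells together so that they mate, and sequencing counts the barcode pairs among the diploids. Scores were corrected for input abundance and mapped to Kd with protein pairs of known affinity run in the same pool. Mating was done three times.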

The parent's light chain CDRs are EGDSLRYYYAN, GKNNRPS, SSRDSSGFQVF; each variant's own CDRs replace them letter for letter.
The read-out is the apparent dissociation constant on a log10 scale (nM): the lower, the stronger.
"ND" marks a missing value. The strain was present, yet no cells mated with the target were sequenced in that replicate, which points to weak or no binding.
Three control strains display no target. For library AAYL52, 28% of the pairings with them gave a signal, with a median of 3.91 and one signal in twenty below 2.90, so weak values seen in few replicates may be background. For each scFv, signals with the empty controls are counted beside the result, with their mean in brackets.

CDR-L1	CDR-L2	CDR-L3	log10 Kd, replicates	empty controls
EGSSLRYYYAN	GKNNVNS	SSRDSSGFQVF	2.32 / 2.79 / 1.87	1 of 9 (4.12)
EGDSLRYYYAN	GKNNRPS	SSNDSSWAQVF	3.24 / 3.23 / 3.84	2 of 9 (3.95)
ELDSLRYYYAN	GKNNRPS	MSRDVSGFQVF	3.24 / 3.32 / 3.32	3 of 9 (3.68)
EDDALRYYYAN	GKNNRMS	SSRDSSGFQVF	1.70 / 1.93 / 1.34	0 of 9
EGDSLRYYYAN	GKNNRPS	SIIDSSGFQVF	ND / ND / 3.51	1 of 9 (4.23)
EGDSHRYYYAN	GKNNRPS	SSRDSSGFYVF	2.92 / ND / ND	1 of 9 (3.26)
EGDSLRYYYAN	GKHNRPI	SSRDSSTFQVF	3.60 / 3.01 / ND	2 of 9 (4.14)
EGDSLRYYCAM	GKANRPS	SSRDSSGFQVF	5.05 / ND / 2.62	1 of 9 (3.81)
ESDSLRYYYAN	GKNNRPS	SSRTSSGFDVF	2.92 / 2.92 / 2.59	2 of 9 (4.10)
EGDSLRYYYAI	GPNNRPS	SSRDSTGFQVF	ND / 3.73 / ND	2 of 9 (3.65)
EGVSLRYYYWN	GKNNRVS	SSRDSSGFQVF	3.64 / 2.87 / 3.17	3 of 9 (3.78)
EGDSLRYYYRN	GKNNPPS	SSRDSSGFQVK	4.31 / ND / 3.95	4 of 9 (3.86)
EGDSLRYYYAN	DKNNRPK	SSRDSSFFQVF	4.29 / 2.43 / 2.95	0 of 9
EGDSPRYYYCN	GKNNRPS	SSRDSSGFQAF	ND / ND / ND	3 of 9 (3.73)
EGDALRYSYAN	GKNNRPS	SSRSSSGFQVF	0.87 / 1.00 / 0.23	2 of 9 (3.85)
EGDSLFYYYYN	GKQNRPS	SSRDSSGFQVF	ND / ND / ND	2 of 9 (4.45)
EGDSLRYYYAC	GKNNIIS	SSRDSSGFQVF	3.59 / ND / 4.56	3 of 9 (3.15)
EGDSLEYYYAN	PKNNRPS	SSNDSSGFQVF	3.72 / 4.68 / 4.13	2 of 9 (4.31)
EGDVLRYYYAT	GKNNRPS	SSRDSSAFQVF	ND / ND / ND	2 of 9 (3.92)
EGDSLRYYYLN	GKNNRTS	GSRDSSGFQVF	ND / ND / ND	1 of 9 (3.90)
EMDSLRYYYAN	GKNNRPS	SSRHSSGFQVF	3.82 / 3.41 / ND	5 of 9 (3.78)
EGDSLRNYYAN	FKNRRPS	SSRDSSGFQVF	3.93 / 5.07 / ND	0 of 9
EGDSLRYYEAA	GKNNRPS	SSRDSSGFGVF	3.12 / 2.73 / 3.76	3 of 9 (3.25)
EGDSLRYYYAN	GKNNRTS	SSRDSSGFQVD	ND / ND / ND	0 of 9
EGDSLRYYYAP	GKNNRPS	SSRDSSGFQVF	4.43 / 4.85 / ND	5 of 9 (4.19)
EGDSLRYYYAN	GKNNRPS	SSADSSGFQVF	1.51 / 1.73 / 1.41	3 of 9 (3.65)
EGTSLRYYYAN	GKRNRPS	SSRDSSCFQVF	ND / 4.37 / ND	5 of 9 (3.73)
EGDSLRYYYAN	GKNNRAS	SSVDSSGFQVI	ND / 5.64 / 4.66	2 of 9 (4.39)
EGQSLRYYYAN	GKNNTPS	SSRDSSGFGVF	ND / ND / ND	5 of 9 (4.00)
EHDSLRYYYAN	GKNNGPS	SSRPSSGFQVF	ND / 4.93 / 3.25	2 of 9 (3.62)
EGDSLRYYYAP	GKNNRPS	SSRKSSGFMVF	ND / ND / ND	0 of 9
ENDSLRYYYAN	GKNNRPH	SSRSSSGFQVF	2.00 / 1.88 / 1.78	7 of 9 (4.38)
EGDSLRYYYDN	GWNNRPS	SSRDISGFQVF	ND / ND / ND	0 of 9
IGDSLRREYAN	GKNNRPS	SSRDSSGFQVF	1.46 / 1.47 / 1.13	4 of 9 (4.23)
AGDSLRYIYAN	GKNNRPS	SSRDSSGFQPF	2.65 / 2.59 / 2.60	5 of 9 (4.17)
EGDSLRYYYAN	GKNNRPL	SSRKASGFQVF	ND / ND / ND	2 of 9 (4.03)
EGDSLRYYYAN	GKNTRPS	SSRDQSGGQVF	2.68 / 2.57 / 2.67	2 of 9 (4.07)
EGDSLRYYYAN	GKQNQPS	SSRDSSGDQVF	ND / 3.34 / 3.76	1 of 9 (4.20)
EGDSLRYYKTN	GKNNRPS	DSRDSSGFQVF	4.33 / 4.30 / ND	5 of 9 (3.43)
EGDSLRYYYAN	MKNNRPS	SSRDLSGFPVF	3.89 / ND / ND	1 of 9 (5.11)
EGDSVRYYYAN	GKNNRGS	SSRDSHGFQVF	ND / ND / ND	2 of 9 (4.01)
EGDRLRYYVAN	GKNNRPS	SSRISSGFQVF	ND / ND / ND	4 of 9 (3.93)
EGDSLYYYYAN	GKNNRPS	SSRDSSGFQVA	4.49 / 3.17 / 2.71	0 of 9
EGCSLRYYCAN	GKNNRPS	STRDSSGFQVF	2.88 / 3.74 / 3.30	6 of 9 (3.27)
EGMSLRYYYAN	GKNNRPS	SSRDSSCFQCF	2.41 / 2.39 / 2.25	4 of 9 (4.06)
EGLWLRYYYAN	GKNNRPS	SSRDSSGFQSF	5.29 / ND / 3.86	3 of 9 (4.23)

Top 7 of the variants detected in all replicates, tightest first:

CDR-L1	CDR-L2	CDR-L3	log10 Kd, replicates	empty controls
EGDALRYSYAN	GKNNRPS	SSRSSSGFQVF	0.87 / 1.00 / 0.23	2 of 9 (3.85)
IGDSLRREYAN	GKNNRPS	SSRDSSGFQVF	1.46 / 1.47 / 1.13	4 of 9 (4.23)
EGDSLRYYYAN	GKNNRPS	SSADSSGFQVF	1.51 / 1.73 / 1.41	3 of 9 (3.65)
EDDALRYYYAN	GKNNRMS	SSRDSSGFQVF	1.70 / 1.93 / 1.34	0 of 9
ENDSLRYYYAN	GKNNRPH	SSRSSSGFQVF	2.00 / 1.88 / 1.78	7 of 9 (4.38)
EGSSLRYYYAN	GKNNVNS	SSRDSSGFQVF	2.32 / 2.79 / 1.87	1 of 9 (4.12)
EGMSLRYYYAN	GKNNRPS	SSRDSSCFQCF	2.41 / 2.39 / 2.25	4 of 9 (4.06)

In this assay the parent's reference entry averaged 2.31; its copy inside this library read 2.25.

The measurements come from Engelhart et al. 2022 (doi:10.1038/s41597-022-01779-4) through the FLAb antibody collection.